Values quoted from earlier work in article PMC7073000.

Legend:
Akt PH (Homo sapiens) = Akt PH (Homo sapiens) (UniProt P31749)
[1] = molecular target: Grb7 CaM-binding peptide CaM-binding site peptide (Homo sapiens) (UniProt Q14451)

- Kd (Akt PH (Homo sapiens)): 100 nM
- Kd [1]: 2.5 nM
Substance: Calmodulin (from UniProt P0DP23)
